The text below walks through data of patent US20110224208A1, “NOVEL INHIBITORS OF FLAVIVIRUS REPLICATION” (KATHOLIEKE UNIVERSITEIT LEUVEN, K.U. LEUVEN R&D, priority 2008, published 2011).

Values after ≈ are worked out from the molar mass of the structure shown. Where only a bound is given, the exact number is not on record here.

This series in a line: Proliferation of exponentially growing Huh-5-2 cells (MTS method). The conditions noted are these: human, CC50, concentration required to inhibit the proliferation of exponentially growing Huh-5-2 cells by 50%.

Usually CC50 stands for the concentration giving 50% cytotoxicity. Read a high CC50 as lower toxicity to the cells. On to `COCCN1C(=O)c2ccccc2C(C(=O)Nc2cccc(OC)c2)C1c1ccccc1` (stereo not shown) [C28, 2-(2-Methoxyethyl)-N-(3-methoxyphenyl)-1-oxo-3-phenyl-1,2,3,4-tetrahydroisoquinoline-4-carboxamide], for which the CC50 at 72 h (Table 2) stood at 74.9 µg/mL (≈ 174 µM). Where the note is “Table 2”, `COCCN1C(=O)c2ccccc2C(C(=O)Nc2ccc(CN3CCOCC3)cc2)C1c1cccs1` (stereo not shown) [C188, 2-(2-methoxyethyl)-N-(4-(morpholinomethyl)phenyl)-1-oxo-3-(thiophen-2-yl)-1,2,3,4-tetrahydroisoquinoline-4-carboxamide] came in with a half-maximal cytotoxic concentration (CC50) at 72 h of 45 µg/mL (≈ 89.1 µM). This CC50 at 72 h is about 1.7-fold lower than that of the compound before. The same measure, in the same setting: to `COCCN1C(=O)c2cc([N+](=O)[O-])ccc2C(C(=O)Nc2cccc(OC)c2)C1c1cccs1` (stereo not shown) [C3, 2-(2-methoxyethyl)-N-(3-methoxyphenyl)-7-nitro-1-oxo-3-(thiophen-2-yl)-1,2,3,4-tetrahydroisoquinoline-4-carboxamide] belongs 65.1 µg/mL (≈ 135 µM); to `COCCN1C(=O)c2ccccc2C(C(=O)Nc2ccc(NC(C)=O)cc2)C1c1cccs1` (stereo not shown) [C129, N-(4-acetamidophenyl)-2-(2-methoxyethyl)-1-oxo-3-(thiophen-2-yl)-1,2,3,4-tetrahydroisoquinoline-4-carboxamide], 97 µg/mL (≈ 209 µM); to `COCCN1C(=O)c2ccccc2C(C(=O)Nc2nc(-c3ccccc3)ns2)C1c1cccs1` (stereo not shown) [C194, 2-(2-methoxyethyl)-1-oxo-N-(3-phenyl-1,2,4-thiadiazol-5-yl)-3-(thiophen-2-yl)-1,2,3,4-tetrahydroisoquinoline-4-carboxamide], 11.6 µg/mL (≈ 23.6 µM). The compound `COCCN1C(=O)c2c(F)ccc(F)c2C(C(=O)Nc2cccc(OC)c2)C1c1cccs1` (stereo not shown) [C91, 5,8-difluoro-2-(2-methoxyethyl)-N-(3-methoxyphenyl)-1-oxo-3-(thiophen-2-yl)-1,2,3,4-tetrahydroisoquinoline-4-carboxamide] showed a half-maximal cytotoxic concentration (CC50) at 72 h (Table 2) of 45.1 µg/mL (≈ 95.4 µM). The same measure, in the same setting: to `CCCCN1C(=O)c2ccccc2C(C(=O)Nc2cccc(OC)c2)C1c1cccs1` (stereo not shown) [C16, 2-Butyl-N-(3-methoxyphenyl)-1-oxo-3-(thiophen-2-yl)-1,2,3,4-tetrahydroisoquinoline-4-carboxamide] belongs 10.4 µg/mL (≈ 23.9 µM); to `COCCN1C(=O)c2ccccc2C(C(=O)Nc2cccc(OC)c2)C1c1cc2ccccc2s1` (stereo not shown) [C27, 3-(Benzo[b]thiophen-2-yl)-2-(2-methoxyethyl)-N-(3-methoxyphenyl)-1-oxo-1,2,3,4-tetrahydroisoquinoline-4-carboxamide], 63.8 µg/mL (≈ 131 µM); to `COCCN1C(=O)c2ccccc2C(C(=O)Nc2ccncn2)C1c1cccs1` (stereo not shown) [C162, 2-(2-methoxyethyl)-1-oxo-N-(pyrimidin-4-yl)-3-(thiophen-2-yl)-1,2,3,4-tetrahydroisoquinoline-4-carboxamide], 80.3 µg/mL (≈ 197 µM).

Take `COCCN1C(=O)c2ccccc2C(C(=O)Nc2cc(C(C)(C)C)on2)C1c1cccs1` (stereo not shown) [C142, N-(5-tert-butylisoxazol-3-yl)-2-(2-methoxyethyl)-1-oxo-3-(thiophen-2-yl)-1,2,3,4-tetrahydroisoquinoline-4-carboxamide]: the CC50 at 72 h is 8.95 µg/mL (≈ 19.7 µM) (Table 2) and over 30 µg/mL (Table 4). Turning to `COCCN1C(=O)c2ccccc2C(C(=O)NCCOc2ccccc2)C1c1cccs1` (stereo not shown) [C34, 2-(2-Methoxyethyl)-1-oxo-N-(2-phenoxyethyl)-3-(thiophen-2-yl)-1,2,3,4-tetrahydroisoquinoline-4-carboxamide], the CC50 at 72 h (Table 2) turned out to be 40.8 µg/mL (≈ 90.5 µM). In turn, `COCCN1C(=O)c2ccccc2C(C(=O)Nc2ccc(Cl)c(Cl)c2)C1c1cccs1` (stereo not shown) [C87, N-(3,4-dichlorophenyl)-2-(2-methoxyethyl)-1-oxo-3-(thiophen-2-yl)-1,2,3,4-tetrahydroisoquinoline-4-carboxamide] had a CC50 at 72 h (Table 2) of 4.34 µg/mL (≈ 9.13 µM). On the same count and under the same terms, then `COCCN1C(=O)c2c(C)cccc2C(C(=O)Nc2cccc(OC)c2)C1c1cccs1` (stereo not shown) [C42, 2-(2-Methoxyethyl)-N-(3-methoxyphenyl)-8-methyl-1-oxo-3-(thiophen-2-yl)-1,2,3,4-tetrahydroisoquinoline-4-carboxamide], with 33.1 µg/mL (≈ 73.5 µM); and `COCCN1C(=O)c2ccccc2C(C(=O)Nc2ccc(Cl)cc2N)C1c1cccs1` (stereo not shown) [C144, N-(2-amino-4-chlorophenyl)-2-(2-methoxyethyl)-1-oxo-3-(thiophen-2-yl)-1,2,3,4-tetrahydroisoquinoline-4-carboxamide], with 45.2 µg/mL (≈ 99.2 µM); and `COCCN1C(=O)c2ccccc2C(C(=O)Nc2cccc(OC)c2)C1c1cccn1C` (stereo not shown) [C106, 2-(2-methoxyethyl)-N-(3-methoxyphenyl)-3-(1-methyl-1H-pyrrol-2-yl)-1-oxo-1,2,3,4-tetrahydroisoquinoline-4-carboxamide], with 84.8 µg/mL (≈ 196 µM). On the same count and under the same terms, to `COCCN1C(=O)c2ccccc2C(C(=O)Nc2ccc(Cl)cn2)C1c1cccs1` (stereo not shown) [C223, N-(5-chloropyridin-2-yl)-2-(2-methoxyethyl)-1-oxo-3-(thiophen-2-yl)-1,2,3,4-tetrahydroisoquinoline-4-carboxamide] belongs 79 µg/mL (≈ 179 µM). For the compound `COCCN1C(=O)c2ccccc2C(C(=O)Nc2cccc(F)c2)C1c1cccs1` (stereo not shown) [C47, N-(3-fluorophenyl)-2-(2-methoxyethyl)-1-oxo-3-(thiophen-2-yl)-1,2,3,4-tetrahydroisoquinoline-4-carboxamide], the CC50 at 72 h reads like this: (Table 2) 98.4 µg/mL (≈ 232 µM); (Table 4) over 50 µg/mL. Taken in the same sequence, the figures for `COCCN1C(=O)c2ccccc2C(C(=O)Nc2ccc(Cl)cc2)C1c1cccs1` (stereo not shown) [C49, N-(4-chlorophenyl)-2-(2-methoxyethyl)-1-oxo-3-(thiophen-2-yl)-1,2,3,4-tetrahydroisoquinoline-4-carboxamide] were 96.8 µg/mL (≈ 220 µM) and over 50 µg/mL. For `COCCN1C(=O)c2ccccc2C(C(=O)Nc2cccc(OC)c2)C1c1cc(C)no1` (stereo not shown) [C104, 2-(2-methoxyethyl)-N-(3-methoxyphenyl)-3-(3-methylisoxazol-5-yl)-1-oxo-1,2,3,4-tetrahydroisoquinoline-4-carboxamide], half-maximal cytotoxicity (Table 2) (CC50 at 72 h) was put at 79.9 µg/mL (≈ 184 µM). With `COCCN1C(=O)c2ccccc2C(C(=O)Nc2cccc(C)c2)C1c1cccs1` (stereo not shown) [C85, 2-(2-methoxyethyl)-1-oxo-3-(thiophen-2-yl)-N-m-tolyl-1,2,3,4-tetrahydroisoquinoline-4-carboxamide], the midpoint of cytotoxicity (Table 2), the CC50 at 72 h, lay at 75 µg/mL (≈ 178 µM). On the same count and under the same terms, then `COCCN1C(=O)c2ccccc2C(C(=O)Nc2ccc3nccnc3c2)C1c1cccs1` (stereo not shown) [C171, 2-(2-methoxyethyl)-1-oxo-N-(quinoxalin-6-yl)-3-(thiophen-2-yl)-1,2,3,4-tetrahydroisoquinoline-4-carboxamide], with 72.6 µg/mL (≈ 158 µM). Consider `CCN1CCCC1CN1C(=O)c2ccccc2C(C(=O)Nc2cccc(OC)c2)C1c1cccs1` (stereo not shown) [C67, 2-((1-ethylpyrrolidin-2-yl)methyl)-N-(3-methoxyphenyl)-1-oxo-3-(thiophen-2-yl)-1,2,3,4-tetrahydroisoquinoline-4-carboxamide], for which the CC50 at 72 h (Table 2) was 21.1 µg/mL (≈ 43.2 µM).

Regarding `CCC1C(C(=O)Nc2cccc(OC)c2)c2ccccc2C(=O)N1CCOC` (stereo not shown) [C58, 3-Ethyl-2-(2-methoxyethyl)-N-(3-methoxyphenyl)-1-oxo-1,2,3,4-tetrahydroisoquinoline-4-carboxamide], the CC50 at 72 h (Table 2) turned out to be 85 µg/mL (≈ 222 µM). Against the preceding compound, the CC50 at 72 h is about 4-fold higher. On the same count and under the same terms, to `COCCN1C(=O)c2ccccc2C(C(=O)Nc2ccc3c(c2)CCN3C)C1c1cccs1` (stereo not shown) [C176, 2-(2-methoxyethyl)-N-(1-methylindolin-5-yl)-1-oxo-3-(thiophen-2-yl)-1,2,3,4-tetrahydroisoquinoline-4-carboxamide] belongs 71.7 µg/mL (≈ 155 µM); to `COCCN1C(=O)c2ccccc2C(C(=O)Nc2cccc(OC(F)(F)F)c2)C1c1cccs1` (stereo not shown) [C112, 2-(2-methoxyethyl)-1-oxo-3-(thiophen-2-yl)-N-(3-(trifluoromethoxy)phenyl)-1,2,3,4-tetrahydroisoquinoline-4-carboxamide], 75.7 µg/mL (≈ 154 µM).

Under “Table 2”, `COCCN1C(=O)c2ccccc2C(C(=O)Nc2nc(C)co2)C1c1cccs1` (stereo not shown) [C154, 2-(2-methoxyethyl)-N-(4-methyloxazol-2-yl)-1-oxo-3-(thiophen-2-yl)-1,2,3,4-tetrahydroisoquinoline-4-carboxamide] showed a CC50 at 72 h of 53.4 µg/mL (≈ 130 µM).

For the compound `COCCN1C(=O)c2cc(C(F)(F)F)ccc2C(C(=O)Nc2cccc(OC)c2)C1c1cccs1` (stereo not shown) [C92, 2-(2-methoxyethyl)-N-(3-methoxyphenyl)-1-oxo-3-(thiophen-2-yl)-7-(trifluoromethyl)-1,2,3,4-tetrahydroisoquinoline-4-carboxamide], where the note is “Table 2”, it took 68.9 µg/mL (≈ 137 µM) to reach half-maximal cytotoxicity (CC50 at 72 h). Consider `COCCN1C(=O)c2ccccc2C(C(=O)Nc2ccc(-c3ncccn3)cc2)C1c1cccs1` (stereo not shown) [C175, 2-(2-methoxyethyl)-1-oxo-N-(4-(pyrimidin-2-yl)phenyl)-3-(thiophen-2-yl)-1,2,3,4-tetrahydroisoquinoline-4-carboxamide], for which the CC50 at 72 h by setting is: (Table 2) 10.4 µg/mL (≈ 21.5 µM); (Table 4) over 50 µg/mL. As for `COCCN1C(=O)c2ccccc2C(C(=O)Nc2nc(C)c(C)s2)C1c1cccs1` (stereo not shown) [C156, N-(4,5-dimethylthiazol-2-yl)-2-(2-methoxyethyl)-1-oxo-3-(thiophen-2-yl)-1,2,3,4-tetrahydroisoquinoline-4-carboxamide], the half-maximal cytotoxic concentration (CC50) at 72 h (Table 2) is 86.3 µg/mL (≈ 195 µM). Same read-out and setting: to `COCCN1C(=O)c2ccccc2C(C(=O)Nc2cccc(-c3cnco3)c2)C1c1cccs1` (stereo not shown) [C210, 2-(2-methoxyethyl)-N-(3-(oxazol-5-yl)phenyl)-1-oxo-3-(thiophen-2-yl)-1,2,3,4-tetrahydroisoquinoline-4-carboxamide] belongs 15.7 µg/mL (≈ 33.2 µM); to `COc1cccc(NC(=O)C2c3ccccc3C(=O)N(CCN(C)C)C2c2cccs2)c1` (stereo not shown) [C15, 2-(2-(Dimethylamino)ethyl)-N-(3-methoxyphenyl)-1-oxo-3-(thiophen-2-yl)-1,2,3,4-tetrahydroisoquinoline-4-carboxamide], 20.2 µg/mL (≈ 44.8 µM); to `COCCN1C(=O)c2ccccc2C(C(=O)Nc2cccc(OC)c2)C1c1ccc(C)s1` (stereo not shown) [C12, 2-(2-Methoxyethyl)-N-(3-methoxyphenyl)-3-(5-methylthiophen-2-yl)-1-oxo-1,2,3,4-tetrahydroisoquinoline-4-carboxamide], 69.7 µg/mL (≈ 155 µM). Still for that read-out and setting: then `COCCN1C(=O)c2ccccc2C(C(=O)Nc2cccc(-n3cccc3)c2)C1c1cccs1` (stereo not shown) [C115, N-(3-(1H-pyrrol-1-yl)phenyl)-2-(2-methoxyethyl)-1-oxo-3-(thiophen-2-yl)-1,2,3,4-tetrahydroisoquinoline-4-carboxamide], with 76.6 µg/mL (≈ 162 µM).
